Data on 1 molecule can be found in publication PMC2911641.

This test has as its target T1, IκBα-EYFP, P25963.
T1 chain: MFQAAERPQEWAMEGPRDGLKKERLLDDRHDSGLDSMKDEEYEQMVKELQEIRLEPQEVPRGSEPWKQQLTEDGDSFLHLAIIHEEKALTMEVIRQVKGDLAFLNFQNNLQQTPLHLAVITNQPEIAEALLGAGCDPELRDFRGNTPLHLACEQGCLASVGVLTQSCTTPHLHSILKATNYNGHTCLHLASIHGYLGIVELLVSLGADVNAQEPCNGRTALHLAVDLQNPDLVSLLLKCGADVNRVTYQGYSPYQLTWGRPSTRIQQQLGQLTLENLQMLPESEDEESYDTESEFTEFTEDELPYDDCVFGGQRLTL
Put plainly: FRET or BRET. Particulars: remark: other sources report otherwise.

B1: rsTagRFP-p65, Q04206 1-551 (natural protein)
chain: MDELFPLIFPAEPAQASGPYVEIIEQPKQRGMRFRYKCEGRSAGSIPGERSTDTTKTHPTIKINGYTGPGTVRISLVTKDPPHRPHPHELVGKDCRDGFYEAELCPDRCIHSFQNLGIQCVKKRDLEQAISQRIQTNNNPFQVPIEEQRGDYDLNAVRLCFQVTVRDPSGRPLRLPPVLSHPIFDNRAPNTAELKICRVNRNSGSCLGGDEIFLLCDKVQKEDIEVYFTGPGWEARGSFSQADVHRQVAIVFRTPPYADPSLQAPVRVSMQLRRPSDRELSEPMEFQYLPDTDDRHRIEEKRKRTYETFKSIMKKSPFSGPTDPRPPPRRIAVPSRSSASVPKPAPQPYPFTSSLSTINYDEFPTMVFPSGQISQASALAPAPPQVLPQAPAPAPAPAMVSALAQAPAPVPVLAPGPPQAVAPPAPKPTQAGEGTLSEALLQLQFDDEDLGALLGNSTDPAVFTDLASVDNSEFQQLLNQGIPVAPHTTEPMLMEYPEAITRLVTGAQRPPDPAPAPLGAPGLPNGLLSGDEDFSSIADMDFSALLSQISS
For the molecule B1, the increase of donor (IκBα-EYFP) fluorescence on switching the acceptor OFF lay within 6 to 7%.
